Test results reported in ChEMBL document CHEMBL1130764, “Synthesis of a potent wide-spectrum serotonin-, norepinephrine-, dopamine-reuptake inhibitor (SNDRI) and a species-selective dopamine-reuptake inhibitor based on the gamma-amino alcohol functional group” (Bioorg Med Chem Lett, 1998).

Chains of the proteins cited; added tags and fusions are not shown.
UniProt P23977, whole entry: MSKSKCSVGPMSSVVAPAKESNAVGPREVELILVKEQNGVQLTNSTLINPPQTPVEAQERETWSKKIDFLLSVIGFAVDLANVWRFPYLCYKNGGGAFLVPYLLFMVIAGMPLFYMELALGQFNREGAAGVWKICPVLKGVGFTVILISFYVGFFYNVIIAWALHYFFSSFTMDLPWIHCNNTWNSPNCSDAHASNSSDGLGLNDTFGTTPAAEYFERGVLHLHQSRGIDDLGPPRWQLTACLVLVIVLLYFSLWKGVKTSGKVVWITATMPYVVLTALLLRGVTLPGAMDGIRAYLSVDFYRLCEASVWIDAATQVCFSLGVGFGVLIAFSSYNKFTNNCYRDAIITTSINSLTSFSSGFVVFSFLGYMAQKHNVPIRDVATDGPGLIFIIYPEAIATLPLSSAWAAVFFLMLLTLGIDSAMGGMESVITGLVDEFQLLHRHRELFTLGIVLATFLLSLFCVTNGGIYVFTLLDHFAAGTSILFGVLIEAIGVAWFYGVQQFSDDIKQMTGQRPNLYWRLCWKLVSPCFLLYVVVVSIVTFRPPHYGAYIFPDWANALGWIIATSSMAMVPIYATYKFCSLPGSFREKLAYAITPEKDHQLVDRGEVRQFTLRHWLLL
UniProt P31652, whole entry: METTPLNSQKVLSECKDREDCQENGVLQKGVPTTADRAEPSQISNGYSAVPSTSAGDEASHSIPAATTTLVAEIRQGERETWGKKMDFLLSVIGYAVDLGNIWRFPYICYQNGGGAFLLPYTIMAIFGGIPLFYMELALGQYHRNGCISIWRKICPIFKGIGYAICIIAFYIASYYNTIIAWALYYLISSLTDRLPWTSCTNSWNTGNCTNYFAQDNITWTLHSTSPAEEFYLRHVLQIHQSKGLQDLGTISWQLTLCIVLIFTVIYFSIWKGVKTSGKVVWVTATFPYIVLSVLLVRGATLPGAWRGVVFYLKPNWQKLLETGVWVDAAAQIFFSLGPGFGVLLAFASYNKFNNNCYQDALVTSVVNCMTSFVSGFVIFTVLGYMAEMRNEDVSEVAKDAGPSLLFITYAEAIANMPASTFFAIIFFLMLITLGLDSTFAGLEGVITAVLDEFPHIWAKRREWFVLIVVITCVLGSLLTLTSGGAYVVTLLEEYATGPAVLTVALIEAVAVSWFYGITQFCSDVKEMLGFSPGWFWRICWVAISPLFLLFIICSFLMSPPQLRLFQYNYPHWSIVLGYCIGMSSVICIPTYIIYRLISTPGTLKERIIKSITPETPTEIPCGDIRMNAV

Columns and labels:
[1] = molecular target: Sodium-dependent dopamine transporter (Rattus norvegicus, UniProt P23977); experiment: Inhibition of [3H]- DA reuptake into rat striatal synaptosomes; type: subcellular, Brain
[2] = molecular target: Sodium-dependent serotonin transporter (Rattus norvegicus, UniProt P31652); experiment: Inhibition of [3H]5-HT reuptake into rat frontal cortex synaptosomes; type: subcellular, Brain

Fc1ccc([C@@H]2CCNC[C@H]2COc2ccc3c(c2)OCO3)cc1 [PAROXETINE]
Ki [1]: 1700 nM
Ki [2]: 0.73 nM
